Where two headings read alike, the source gives them in different places.
Target: PD-1/PD-L1 complex (Homo sapiens, UniProt Q9NZQ7)
Assay: HTRF assay of PD-1/PD-L1 complex dissociation (CisBio);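 note: human PD-L1 at 5 nM with human PD-1 at 50 nM, TR-FRET signal read after 2 h at room temperature, background removed via negative control and scaled to positive control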
Conditions: for remaining activity at 5 µM: 2 h

Structure (SMILES)	remaining activity at 5 µM (read-out: % of undissociated complex at 5 μM)	remaining activity at 5 µM (read-out: HTRF % of the undissociated complex at 5 μM)	% of undissociated complex at 5 nM (5 nM, Table S1)
Cc1c(-c2ccc(CO)cc2)cccc1-c1ccc2c(c1)OCCO2 [4a, (3′-(Benzo-1,4-dioxan-6-yl)-2′-methyl-[1,1′-biphenyl]-4-yl)methanol]	42%	42%	–
Cc1c(COc2cc(OCc3cccc(C#N)c3)c(CN3C[C@H](O)C[C@@H]3C(=O)O)cc2Cl)cccc1-c1ccc2c(c1)OCCO2 [BMS-1166, reference compound]	–	–	53%

Source: PMC8365601, “Terphenyl-Based Small-Molecule Inhibitors of Programmed Cell Death-1/Programmed Death-Ligand 1 Protein–Protein Interaction” (Journal of Medicinal Chemistry, 2021)
